For data set [1] the following is noted: foam.
The conditions of data set [2]: cited from earlier work.

Where two headings read alike, the source gives them in different places.

Turning to Stannous di(2-ethylhexanoate), the elongation in data set [1] is reported as 97%. In data set [1] (catalyst 0.23 pphp), the “% Elongation” value came out at 97%, the Density came to 1.31 lbs/ft3, the Permeability is recorded as 0.7 scfm and the Resiliency was 30%. Moreover, the Tensile in data set [1] (catalyst 0.23 pphp) was found to be 14 psi. The “CMR classification” value in data set [2] (Effective Jan. 11, 2023) is “Reprotox. of Cat. 1B”. Moreover, the CMR classification result in data set [2] (current) was “reprotoxicant of category 2”. In data set [2] (reproductive toxicity / CMR status, current or as in Comments), the “CMR classification” value is recorded as “Reprotox. of Cat. 2”. Moreover, the CMR classification entry in data set [2] (will be classified in 2023, Europe) was “reprotoxicant of category 1B”.
